Assay results as given in patent publication US9243009B2, “Phosphate ester compound of hydroxy acid substituted phenol ester, preparation method and medical use thereof” (West China Hospital, Sichuan University, priority 2010, dated 2016).

Conditions: 10 mg/ml solution mixed with mouse, rat or rabbit plasma, 37° C., 0 min to 4 h

| Substance | decomposition in the plasma into the active compound propofol |
| --- | --- |
| propofol w-hydroxybutyrate phosphate disodium salt | rapidly decomposed |
| propofol w-hydroxyvalerate phosphate disodium salt | rapidly decomposed |
